The assay concerns the target R132H mutant IDH1 enzyme (Homo sapiens (Human), UniProt O75874, R132H). The experiment in a line: R132H IDH1 Enzymatic Assay. The format is biochemical. The settings on record: R132H mutant IDH1 enzyme 1.5 nM final; luminescence readout; read-out: IC50.

The chains behind the UniProt entries cited, without tags or fusion partners.
UniProt O75874, whole entry R132H: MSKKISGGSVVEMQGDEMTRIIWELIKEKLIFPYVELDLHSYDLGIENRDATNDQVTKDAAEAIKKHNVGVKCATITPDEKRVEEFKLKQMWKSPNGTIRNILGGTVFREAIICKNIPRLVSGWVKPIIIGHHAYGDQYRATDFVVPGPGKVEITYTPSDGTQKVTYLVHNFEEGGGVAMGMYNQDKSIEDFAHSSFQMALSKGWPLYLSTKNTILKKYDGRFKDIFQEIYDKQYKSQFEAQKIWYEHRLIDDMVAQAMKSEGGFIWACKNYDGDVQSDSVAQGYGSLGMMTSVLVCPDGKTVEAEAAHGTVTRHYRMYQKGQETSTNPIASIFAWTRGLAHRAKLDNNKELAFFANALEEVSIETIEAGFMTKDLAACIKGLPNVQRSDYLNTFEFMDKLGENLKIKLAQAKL

The values below come from patent US10442819B2, “Tricyclic compounds as inhibitors of mutant IDH enzymes” (Merck Sharp & Dohme Corp., priority 2014, dated 2019).

SMILES strings stand for the structures.

As a reminder, the IC50 is the concentration that gives 50% inhibition.

`COC[C@@H]1CCCN1c1ccc2c(c1)N(C(=O)[C@H]1CC[C@H](OC)CC1)Cc1cccnc1N2` [Example 260, 6-[(trans-4-methoxycyclohexyl)carbonyl]-8-[(2S)-2-(methoxymethyl)pyrrolidin-1-yl]-6,11-dihydro-5H-pyrido[2,3-b][1,5]benzodiazepine]: the IC50 was 153 nM.
As for `CO[C@H]1CC[C@H](C(=O)N2Cc3cccnc3Nc3ccc(CN(C)C(C4CC4)C(F)(F)F)cc32)CC1` (relative stereo) [Example 5, 1-Cyclopropyl-2,2,2-trifluoro-N-({6-[(trans-4-methoxycyclohexyl)carbonyl]-6,11-dihydro-5H-pyrido[2,3-b][1,5]benzodiazepin-8-yl}methyl)-N-methylethanamine], the figure is 283 nM.
For `O=C([C@H]1CC[C@H](NC2(C(F)(F)F)CC2)CC1)N1Cc2cccnc2Nc2ccc(N3CCOCC3)cc21` [Example 443, trans-4-[(8-morpholin-4-yl-5,11-dihydro-6H-pyrido[2,3-b][1,5]benzodiazepin-6-yl)carbonyl]-N-[1-(trifluoromethyl)cyclopropyl]-cyclohexanamine] the value was 56 nM; for `CO[C@H](C(C)C)[C@H]1CC[C@@H](C(=O)N2Cc3cccnc3Nc3ccc(N4CCOCC4)cc32)CC1` [Example 117, 6-({cis-4-[(1R)-1-methoxy-2-methylpropyl]cyclohexyl}-carbonyl)-8-morpholin-4-yl-6,11-dihydro-5H-pyrido[2,3-b][1,5]benzodiazepine], 91 nM; for `COC1CCC(C(=O)N2Cc3cccnc3Nc3ccc(N4CCCC(OC)C4)cc32)CC1` (stereo not shown) [Example 203, 6-[(4-methoxycyclohexyl)carbonyl]-8-(3-methoxypiperidin-1-yl)-6,11-dihydro-5H-pyrido[2,3-b][1,5]benzodiazepine], 560 nM.
As for `CC(C)O[C@H]1CC[C@H](C(=O)N2Cc3cccnc3Nc3ccc(N4CC5(CCOC5)C4)cc32)CC1` [Example 309, 6-{[trans-4-(1-methylethoxy)cyclohexyl]car-bonyl}-8-(6-oxa-2-azaspiro[3.4]oct-2-yl)-6,11-dihydro-5H-pyrido[2,3-b][1,5]benzodiazepine], the figure is 100 nM.
For the compound `CCO[C@H]1C[C@@H](C(=O)N2Cc3cccnc3Nc3ccc(N4C[C@@H]5CC[C@H]4CO5)cc32)C[C@@H]1F` [Example 157, 6-{[(1R,3S,4S)-3-ethoxy-4-fluorocyclopentyl]carbon-yl}-8-[(1S,4S)-2-oxa-5-azabicyclo[2.2.2]oct-5-yl]-6,11-dihydro-5H-pyrido[2,3-b][1,5]benzodiazepine], the IC50 was determined as 13 nM.
As for `CO[C@H]1CN(c2ccc3c(c2)N(C(=O)[C@H]2CC[C@H](OC)CC2)Cc2cccnc2N3)CC[C@@H]1F` (single isomer, unassigned) [Example 214], the figure is 327 nM; as for `CC(C)O[C@H]1CC[C@H](C(=O)N2Cc3cccnc3Nc3ccc(C4CCOCC4)cc32)CC1` [Example 351, 6-{[Trans-4-(1-methylethoxy)cyclohexyl]carbonyl}-8-(tetrahydro-2H-pyran-4-yl)-6,11-dihydro-5H-pyrido[2,3-b][1,5]benzodiazepine], 13 nM.
Consider `CO[C@H]1CC[C@H](C(=O)N2Cc3cccnc3Nc3ccc(-c4c(C)noc4C)cc32)CC1` [Example 354, 8-(3,5-dimethylisoxazol-4-yl)-6-[(trans-4-methoxycyclohexyl)carbonyl]-6,11-dihydro-5H-pyrido[2,3-b][1,5]benzodiazepine], for which the IC50 was 95 nM.
As for `CC1CCCC(C(=O)N2Cc3cccnc3Nc3ccccc32)C1` (stereo not shown) [Example 59, 6-[(3-methylcyclohexyl)carbon-yl]-6,11-dihydro-5H-pyrido[2,3-b][1,5]benzodiazepine], the IC50 was 931 nM.
As for `CC(C)(C#N)c1ccc2c(c1)N(C(=O)[C@H]1CC[C@@H](NCC(F)(F)F)CC1)Cc1cccnc1N2` [Example 436, 2-methyl-2-[6-({cis-4-[(2,2,2-trifluoroethyl)amino]cyclohexyl}carbonyl)-6,11-dihydro-5H-pyrido[2,3-b][1,5]benzodiazepin-8-yl]propanenitrile], the figure is 62 nM; as for `CC(C)O[C@H]1CC[C@H](C(=O)N2Cc3cccnc3Nc3ccc([C@@H]4CCO[C@H]4C)cc32)OC1` (mixture of isomers) [Example 529, ((2R,5S)-5-isopropoxytetrahydro-2H-pyran-2-yl)(8-((2S,3S and 2R,3R)-2-methyltetrahydrofuran-3-yl)-5H-benzo[b]pyrido[2,3-e][1,4]diazepin-6(11H)-yl)methanone], 6 nM.
In the case of `CO[C@H]1CCN(c2ccc3c(c2)N(C(=O)[C@H]2CC[C@H](OC(C)C)CO2)Cc2cccnc2N3)[C@H](C)C1` (single isomer, unassigned) [Example 43], the IC50 amounted to 76 nM.
For `O=C(N1CCC(NC2(C(F)(F)F)CC2)CC1)N1Cc2cccnc2Nc2ccc(N3C[C@@H]4C[C@H]3CO4)cc21` [Example 483, 1-({8-[(1S,4S)-2-oxa-5-azabicydo[2.2.1]hept-5-yl]-5,11-dihydro-6H-pyrido[2,3-b][1,5]benzodiazepin-6-yl}carbonyl)-N-[1-(trifluoromethyl)cyclopropyl]-piperidin-4-amine] the value was 123 nM.
For `CO[C@@H]1CC[C@H](C(=O)N2Cc3cccnc3Nc3ccc(N4CCOCC4)cc32)[C@H](C)[C@@H]1C` (single isomer, unassigned) [Example 109] the value was 488 nM; for `O=C(N1Cc2cccnc2Nc2ccc(N3CC4CCC3CO4)cc21)C1(F)CCN(CC(F)(F)F)CC1` (stereo not shown) [Example 344, 6-{[4-fluoro-1-(2,2,2-trifluoroethyl)piperidin-4-yl]carbonyl}-8-(2-oxa-5-azabicyclo[2.2.2]oct-5-yl)-6,11-dihydro-5H-pyrido[2,3-b][1,5]benzodiazepine], 9 nM; for `CC(C)(O)[C@H]1CC[C@H](C(=O)N2Cc3cccnc3Nc3ccc(N4CCOCC4)cc32)CC1` [Example 521, [Trans-4-(2-hydroxypropan-2-yl)cyclohexyl][8-(morpholin-4-yl)-5,11-dihydro-6H-pyrido[2,3-b][1,5]benzodiazepin-6-yl]methanone], 133 nM.
As for `CC(C)O[C@H]1CC[C@H](C(=O)N2Cc3cccnc3Nc3ccc(C4CC4COC(F)F)cc32)OC1` (stereo partly drawn) [Example 36, (8-(2-((difluoromethoxy)methyl)cyclopropyl)-5,11-dihydro-6H-benzo[b]pyrido[2,3-e][1,4]diazepin-6-yl)((2R,5S)-5-isopropoxytetrahydro-2H-pyran-2-yl)methanone], the figure is 12 nM.
As to `O=C(C1CCCCCC1)N1Cc2cccnc2Nc2ccccc21` [Example 71, 6-(cycloheptylcarbonyl)-6,11-dihydro-5H-pyrido[2,3-b][1,5]benzodiazepine], the IC50 stood at 975 nM.
On to `C[C@H]1CC(F)(F)CC[C@@H]1C(=O)N1Cc2cccnc2Nc2ccc(N3CCOCC3)cc21` [Example 76, 6-{[(1S,2S)-4,4-difluoro-2-methylcyclohexyl]carbon-yl}-8-morpholin-4-yl-6,11-dihydro-5H-pyrido[2,3-b][1,5]benzodiazepine], for which the IC50 is 489 nM.
As for `CO[C@@H]1CC[C@@H](C(=O)N2Cc3cccnc3Nc3ccc(N4CCOCC4)cc32)C[C@@H]1C` [Example 106, 6-{[(1R,3S,4R)-4-methoxy-3-methylcyclohexyl]carbon-yl}-8-morpholin-4-yl-6,11-dihydro-5H-pyrido[2,3-b][1,5]benzodiazepine], the figure is 155 nM.
